From patent US9764004B2 (Eli Lilly and Company, priority 2015, dated 2017)
Where two headings read alike, the source gives them in different places.

By UniProt entry, the sequences of proteins in these tests, tags left out. Residues count along the entry.
UniProt Q61606, 27-485: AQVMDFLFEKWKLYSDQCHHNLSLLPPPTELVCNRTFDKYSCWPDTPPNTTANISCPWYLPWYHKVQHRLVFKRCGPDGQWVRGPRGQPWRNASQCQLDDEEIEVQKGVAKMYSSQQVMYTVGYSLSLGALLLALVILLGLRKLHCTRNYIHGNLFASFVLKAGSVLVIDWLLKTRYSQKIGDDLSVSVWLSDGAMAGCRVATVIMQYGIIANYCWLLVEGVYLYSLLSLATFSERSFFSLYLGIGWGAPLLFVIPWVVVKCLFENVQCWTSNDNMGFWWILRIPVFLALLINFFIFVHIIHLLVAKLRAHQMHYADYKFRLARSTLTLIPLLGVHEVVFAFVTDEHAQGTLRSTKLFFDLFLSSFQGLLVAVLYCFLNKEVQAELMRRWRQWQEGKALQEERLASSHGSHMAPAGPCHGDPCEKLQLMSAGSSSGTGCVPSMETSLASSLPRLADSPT
UniProt P30082, 27-485: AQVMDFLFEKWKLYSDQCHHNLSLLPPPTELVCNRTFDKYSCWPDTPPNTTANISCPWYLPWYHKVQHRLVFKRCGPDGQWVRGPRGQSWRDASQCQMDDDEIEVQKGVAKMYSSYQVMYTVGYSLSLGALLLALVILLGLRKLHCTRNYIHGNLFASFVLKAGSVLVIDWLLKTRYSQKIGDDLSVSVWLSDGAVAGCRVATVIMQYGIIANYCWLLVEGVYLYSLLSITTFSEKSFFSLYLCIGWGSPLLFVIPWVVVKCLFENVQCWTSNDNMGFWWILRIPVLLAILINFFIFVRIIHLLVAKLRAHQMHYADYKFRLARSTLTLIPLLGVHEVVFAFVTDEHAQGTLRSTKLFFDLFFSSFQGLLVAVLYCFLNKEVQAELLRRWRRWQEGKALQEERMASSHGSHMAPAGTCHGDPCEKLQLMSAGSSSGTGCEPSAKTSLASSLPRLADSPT
UniProt P43220, 24-463: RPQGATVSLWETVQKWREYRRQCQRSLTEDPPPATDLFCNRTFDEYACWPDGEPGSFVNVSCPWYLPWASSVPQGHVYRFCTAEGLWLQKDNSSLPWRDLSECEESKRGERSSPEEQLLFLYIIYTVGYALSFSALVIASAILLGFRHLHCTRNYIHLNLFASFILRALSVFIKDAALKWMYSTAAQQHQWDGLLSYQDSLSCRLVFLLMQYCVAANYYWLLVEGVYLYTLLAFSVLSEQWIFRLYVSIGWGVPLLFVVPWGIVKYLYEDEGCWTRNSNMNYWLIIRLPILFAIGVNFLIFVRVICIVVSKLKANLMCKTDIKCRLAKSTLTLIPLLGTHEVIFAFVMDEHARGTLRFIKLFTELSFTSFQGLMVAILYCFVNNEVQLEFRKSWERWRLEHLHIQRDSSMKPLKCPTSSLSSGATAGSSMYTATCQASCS
UniProt P47871, 26-477: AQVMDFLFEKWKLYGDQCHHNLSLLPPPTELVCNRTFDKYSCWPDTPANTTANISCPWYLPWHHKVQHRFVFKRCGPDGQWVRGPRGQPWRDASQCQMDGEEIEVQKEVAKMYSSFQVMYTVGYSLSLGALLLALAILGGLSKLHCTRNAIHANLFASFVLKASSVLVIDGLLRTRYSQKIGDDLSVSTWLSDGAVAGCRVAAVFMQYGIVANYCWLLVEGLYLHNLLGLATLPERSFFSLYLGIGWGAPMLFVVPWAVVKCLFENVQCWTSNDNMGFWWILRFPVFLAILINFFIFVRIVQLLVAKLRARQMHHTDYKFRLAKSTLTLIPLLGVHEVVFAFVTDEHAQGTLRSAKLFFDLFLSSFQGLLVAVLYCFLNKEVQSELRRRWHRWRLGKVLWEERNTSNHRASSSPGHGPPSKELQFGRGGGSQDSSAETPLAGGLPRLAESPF

Experiments:
[1] = molecular target: T1, mouse glucagon receptor (mGcg-R) (Mus musculus, UniProt Q61606); assay: Radioligand competition binding (SPA), mGcg-R membranes; settings: mean ± SEM
T1 construct: expressed in transfected cells; crude plasma membranes

[2] = molecular target: T2, rat glucagon receptor (rGcg-R) (Rattus norvegicus, UniProt P30082); assay: Radioligand competition binding (SPA), rGcg-R membranes; settings: mean ± SEM
T2 construct: expressed in transfected cells; host or cells: 293HEK, transient (48 h), pcDNA3.1-ZeoR; crude plasma membranes

[3] = molecular target: T3, hGIP-R (Homo sapiens, UniProt P48546); assay: hGIP-R functional cAMP assay; assay type: cell-based
T3 construct: expressed in transfected cells; host or cells: CHO-S (Chinese Hamster Ovary, suspension), pcDNA3.1-NeoR, Geneticin selection
T3 sequence (P48546 22-466): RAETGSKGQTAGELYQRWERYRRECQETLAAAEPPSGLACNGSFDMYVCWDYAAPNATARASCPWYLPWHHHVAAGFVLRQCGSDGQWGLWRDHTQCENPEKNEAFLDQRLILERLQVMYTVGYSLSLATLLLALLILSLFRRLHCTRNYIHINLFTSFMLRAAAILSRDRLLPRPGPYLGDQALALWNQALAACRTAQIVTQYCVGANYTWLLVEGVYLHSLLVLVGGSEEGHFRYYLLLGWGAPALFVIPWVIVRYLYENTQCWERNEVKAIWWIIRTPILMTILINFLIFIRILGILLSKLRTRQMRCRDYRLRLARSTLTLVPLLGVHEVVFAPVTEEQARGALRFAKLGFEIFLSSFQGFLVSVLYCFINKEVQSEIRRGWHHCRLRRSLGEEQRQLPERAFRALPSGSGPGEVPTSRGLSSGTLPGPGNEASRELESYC

[4] = Pharmacokinetics in Cynomolgus Monkeys; settings: cynomolgus monkey, in vivo
Description: Plasma concentrations of compounds are determined by LC/MS methods. Each method measured the intact peptide (peptide plus linked time extension). For each assay, the compound and an analog, used as an internal standard (IS), are extracted from 100% rat or monkey plasma (50 μl) using methanol and 0.1% formic acid. Two distinct layers are formed upon centrifugation with the compound and the IS located in the supernatant. A 275 μl aliquot of the supernatant is transferred to a Thermo Protein Precipitation Plate where a vacuum is applied for collection of the flow through into a 96-well plate.
Samples are dried with heated nitrogen gas to remove the supernatant. A volume of 150 μl of 30% acetonitrile and 5% formic acid is added to the wells to reconstitute the samples. Injected samples (20 μl) are loaded onto a Supelco Analytical Discovery BIO Wide Pore C5-3, 5 cm×0.1 mm, 3 μm column. The column effluent is directed into a Thermo Q-Exactive mass spectrometer for detection and quantitation.
Male Cynomolgus monkeys are administered a single intravenous (50 nmole/kg) or subcutaneous (50 nmole/kg) dose of a test compound in Tris Buffer (pH 8.0) at a volume of 0.25 ml/kg. Blood is collected from each animal at 0.5 (IV only), 6, 12, 24, 48, 72, 96, 120, 168, 192, 240, 336, 480, 576, and 672 hours post-dose. Plasma concentrations of compounds are determined by LC/MS methods generally as described above in the Sprague dawley rat studies.
Mean (n=2) pharmacokinetic parameters are provided below in table 4.

[5] = assay type: physicochemical; settings: pH 8
Description: Chemical stability for Example 1 is determined in different buffers of various pH values. Samples are prepared in H2O to a 5 mg/mL concentration, dialyzed using Slide-A-Lyzer Dialysis cassettes, 2000 MWCO (part number 66203) overnight at 4° C. into the buffer of interest, filtered through a 0.22 μm filter (Millex, SLGV013SL) then diluted to 1 mg/mL in respective buffer. Buffer compositions are 10 mM Tris-HCl in H2O pH 8 (T8), 10 mM Tris-HCl in H2O pH 7 (T7), 10 mM Histidine in H2O pH 7 (H7), or 10 mM Citrate in H2O pH 6 (C6). Each 1 mg/mL sample is transferred to three vials. […] Stability is also assessed by size exclusion HPLC (SEC-HPLC) on an Insulin HMWP, 7.8×300 mm column (part number WAT2015549) with a running buffer of 20 mM Sodium Phosphate, 20% acetonitrile, pH 7.2 running at a flow rate of 0.5 mL/min for 40 min.

[6] = molecular target: human Glucagon-Like Peptide-1 receptor (hGLP-1R) (Homo sapiens, UniProt P43220); assay: hGLP-1-R functional cAMP assay
[7] = molecular target: T4, human glucagon receptor (hGcg-R) (Homo sapiens, UniProt P47871); assay: Radioligand competition binding (SPA), hGcg-R membranes; parameters: expressed in transfected cells; crude plasma membranes; settings: mean ± SEM
[8] = molecular target: T4, human glucagon receptor (hGcg-R); assay: hGcg-R functional cAMP assay; assay type: cell-based; parameters: expressed in transfected cells; host or cells: 293HEK, plasmid phD, hygromycin selection
[9] = male Cynomolgus monkeys, IV 50 nmol/kg, mean n=2
[10] = male Cynomolgus monkeys, SC 50 nmol/kg, mean n=2

CC(C)C[C@H](NC(=O)[C@H](Cc1c[nH]c2ccccc12)NC(=O)[C@H](CCC(=O)O)NC(=O)[C@@H](NC(=O)[C@H](Cc1ccccc1)NC(=O)[C@H](CCC(=O)O)NC(=O)[C@H](CCCCNC(=O)COCCOCCNC(=O)COCCOCCNC(=O)CC[C@H](NC(=O)CC[C@H](NC(=O)CCCCCCCCCCCCCCCCC(=O)O)C(=O)O)C(=O)O)NC(=O)[C@H](C)NC(=O)[C@H](CCCCN)NC(=O)[C@H](CCCCN)NC(=O)C(C)(C)NC(=O)[C@H](CC(=O)O)NC(=O)[C@H](CC(C)C)NC(=O)[C@H](Cc1ccc(O)cc1)NC(=O)[C@H](CCCCN)NC(=O)[C@H](CO)NC(=O)[C@H](Cc1ccc(O)cc1)NC(=O)[C@H](CC(=O)O)NC(=O)[C@H](CO)NC(=O)[C@@H](NC(=O)[C@H](Cc1ccccc1)NC(=O)[C@@H](NC(=O)CNC(=O)[C@H](CCC(N)=O)NC(=O)C(C)(C)NC(=O)[C@@H](N)Cc1ccc(O)cc1)[C@@H](C)O)[C@@H](C)O)C(C)C)C(=O)N[C@@H](CC(C)C)C(=O)N[C@@H](CCC(=O)O)C(=O)N[C@H](C(=O)NCC(=O)N1CCC[C@H]1C(=O)N[C@@H](CO)C(=O)N[C@@H](CO)C(=O)NCC(=O)N[C@@H](C)C(=O)N1CCC[C@H]1C(=O)N1CCC[C@H]1C(=O)N1CCC[C@H]1C(=O)N[C@@H](CO)C(N)=O)[C@@H](C)O [Example 1]
Ki [1]: 1.92 ± 0.71 nM
Ki [2]: 9.78 ± 0.22 nM
EC50 ([3]; cAMP, geometric mean ± SEM, read-out: hGIP-R EC50): > 500 nM
EC50 ([3]; sample C6.5-4 C.-4 wk, read-out: EC50 GIP Receptor Assay): > 100 nM
EC50 ([3]; sample C6.5-40 C.-4 wk, read-out: EC50 GIP Receptor Assay): > 100 nM
EC50 ([3]; sample C6.5MT-4 C.-4 wk, read-out: EC50 GIP Receptor Assay): > 100 nM
EC50 ([3]; sample C6.5MT-40 C.-4 wk, read-out: EC50 GIP Receptor Assay): > 100 nM
EC50 ([3]; sample T7-4 C.-4 wk, N = 2 ± SD, *N = 1, read-out: EC50 GIP Receptor Assay): > 100 nM
EC50 ([3]; sample T7-40 C.-4 wk, N = 2 ± SD, *N = 1, read-out: EC50 GIP Receptor Assay): > 100 nM
EC50 ([3]; sample T7m-4 C.-4 wk, N = 2 ± SD, *N = 1, read-out: EC50 GIP Receptor Assay): > 100 nM
EC50 ([3]; sample T7m-40 C.-4 wk, N = 2 ± SD, *N = 1, read-out: EC50 GIP Receptor Assay): > 100 nM
AUC(0-inf) [4, 9]: 37.3 µM·h
half-life [4, 9]: 42 h
AUC(0-inf) [4, 10]: 31.8 µM·h
Tmax [4, 10]: 9 h
half-life [4, 10]: 44 h
CL/F ([4]; male, sc, 50 nmol/kg, read-out: CL or CL/F (converted)): 1.57 mL/h/kg
Sites of degradation by LC-MS [5]: No major sites of degradation are identified
EC50 ([6]; EC50 GLP-1 Receptor Assay, sample C6.5-4 C.-4 wk, N = 2 ± SD): 41.6 ± 5 nM
EC50 ([6]; EC50 GLP-1 Receptor Assay, sample C6.5-40 C.-4 wk, N = 2 ± SD): 54.6 ± 46.2 nM
EC50 ([6]; EC50 GLP-1 Receptor Assay, sample C6.5MT-4 C.-4 wk, N = 2 ± SD): 55.6 ± 9.2 nM
EC50 ([6]; EC50 GLP-1 Receptor Assay, sample C6.5MT-40 C.-4 wk, N = 2 ± SD): 47.9 ± 5.8 nM
EC50 ([6]; EC50 GLP-1 Receptor Assay, sample T7-4 C.-4 wk, N = 2 ± SD, *N = 1): > 100 nM
EC50 ([6]; EC50 GLP-1 Receptor Assay, sample T7-40 C.-4 wk, N = 2 ± SD, *N = 1): 57.5 nM
EC50 ([6]; EC50 GLP-1 Receptor Assay, sample T7m-4 C.-4 wk, N = 2 ± SD, *N = 1): 43.8 nM
EC50 ([6]; EC50 GLP-1 Receptor Assay, sample T7m-40 C.-4 wk, N = 2 ± SD, *N = 1): 49.7 nM
EC50 ([6]; hGlp-1R EC50, cAMP, geometric mean ± SEM): 73.9 ± 19.6 nM
Ki [7]: 2.04 ± 1.02 nM
EC50 ([8]; cAMP, geometric mean ± SEM, read-out: hGcg-R EC50): 0.00436 ± 0.00079 nM
EC50 ([8]; sample C6.5-4 C.-4 wk, N = 2 ± SD, read-out: EC50 Gcg Receptor Assay): 0.0178 ± 0.0068 nM
EC50 ([8]; sample C6.5-40 C.-4 wk, N = 2 ± SD, read-out: EC50 Gcg Receptor Assay): 0.0243 ± 0.0111 nM
EC50 ([8]; sample C6.5MT-4 C.-4 wk, N = 2 ± SD, read-out: EC50 Gcg Receptor Assay): 0.0188 ± 0.0018 nM
EC50 ([8]; sample C6.5MT-40 C.-4 wk, N = 2 ± SD, read-out: EC50 Gcg Receptor Assay): 0.0146 ± 0.005 nM
EC50 ([8]; sample T7-4 C.-4 wk, N = 2 ± SD, read-out: EC50 Gcg Receptor Assay): 0.0203 ± 0.0025 nM
EC50 ([8]; sample T7-40 C.-4 wk, N = 2 ± SD, read-out: EC50 Gcg Receptor Assay): 0.0217 ± 0.0034 nM
EC50 ([8]; sample T7m-4 C.-4 wk, N = 2 ± SD, read-out: EC50 Gcg Receptor Assay): 0.023 ± 0.0003 nM
EC50 ([8]; sample T7m-40 C.-4 wk, N = 2 ± SD, read-out: EC50 Gcg Receptor Assay): 0.0194 ± 0.005 nM
